# Test results as given in PubChem BioAssay AID504891 (National Center for Advancing Translational Sciences (NCATS), 2011).
# The chains behind the UniProt entries cited, without tags or fusion partners.
# UniProt Q13526, whole entry: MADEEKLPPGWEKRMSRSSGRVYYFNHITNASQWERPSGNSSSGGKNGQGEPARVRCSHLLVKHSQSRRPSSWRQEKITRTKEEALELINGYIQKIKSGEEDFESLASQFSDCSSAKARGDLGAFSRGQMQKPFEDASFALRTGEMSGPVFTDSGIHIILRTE
# Only a part is listed here, and it is no random draw. Records with an inconclusive call do not appear. Calls of active or inactive are those of the source. The call rests on the fitted dose curve; in most records, active means well fitted inhibition curve with a large enough effect in the polarisation, with a control signal flat (not every such curve was filed as active); inconclusive means small, poorly fitted or top-dose-only effect, or effect the other way, or a change in a side signal; inactive means no such curve, though single readings can be large or run the other way; the % refers to the polarisation.
# Target: Peptidyl-prolyl cis-trans isomerase NIMA-interacting 1 (Homo sapiens) (UniProt Q13526)
# Test: qHTS Assay to Find Inhibitors of Pin1
# Conditions: Pin1 FP peptide displacement, HiFluor488, 10 min; at 115 µM (top of the series)
# On the % scale 0 is the no-effect control and ±100 the full control effect.
row,SMILES,"activity, negative = inhibition"
1,O=C(NCC1(N2CCCCC2)CCCCC1)c1cccc(C(F)(F)F)c1,inactive: -10%
2,CCCOc1cccc(C(=O)NCC2(N3CCOCC3)CCCCC2)c1,inactive: 0.77%
3,O=[N+]([O-])c1cc([N+](=O)[O-])c(NCC2CCS(=O)(=O)C2)c([N+](=O)[O-])c1 (centres undefined),inactive: -5.23%
4,CC(C)c1ccc(C(=O)NCC2(N3CCOCC3)CCCCC2)cc1,inactive: -5.88%
5,COc1ccc(NC2CCN(C(=O)OC(C)(C)C)CC2)cc1,inactive: -3.51%
6,CN1CCN(CCOC(=O)C(O)(c2ccccc2)c2ccccc2)CC1,inactive: -0.246%
7,O=C(NCC1(N2CCOCC2)CCCCC1)c1cc(=O)[nH]c2ccccc12,inactive: -1.67%
8,COc1cc(C(=O)NCC2(N3CCCCC3)CCCCC2)ccc1OC(F)F,inactive: -3.83%
9,O=C(NCC1(N2CCCCC2)CCCCC1)c1ccc(OC(F)F)cc1,inactive: -5.05%
10,O=C(NCC1(N2CCCCC2)CCCCC1)c1cccc([N+](=O)[O-])c1,inactive: 4.52%
11,CCOc1ccc(C(=O)NCC2(N3CCOCC3)CCCCC2)cc1,inactive: -0.794%
12,CSc1ccc(C(=O)NCC2(N3CCOCC3)CCCCC2)cc1,inactive: 0.103%
13,N#CC1(Nc2ccccc2)CCN(CCc2ccccc2)CC1,inactive: -2.55%
14,CCN1CCC(Nc2ccc(Cl)cc2)CC1,inactive: 3.7%
15,O=C(NCC1(N2CCCCC2)CCCCC1)c1cncc(Br)c1,inactive: -0.206%
16,CN1CCC(Nc2cccc(F)c2)CC1,inactive: -5.98%
17,O=C(OC1CN2CCC1CC2)c1ccc([N+](=O)[O-])cc1 (centres undefined),inactive: -3.19%
18,CCCOc1ccc(C(=O)NCC2(N(C)C)CCCCC2)cc1OC,inactive: -2.24%
19,O=C(NCC1(N2CCOCC2)CCCCC1)c1ccccc1Br,inactive: -0.028%
20,CCCCOc1ccccc1C(=O)NCC1(N2CCOCC2)CCCCC1,inactive: 0.169%
21,CN(C)c1cccc(C(=O)NCC2(N3CCCCC3)CCCCC2)c1,inactive: -10.7%
22,O=[N+]([O-])c1cc([N+](=O)[O-])c(OC2CCCCC2O)c([N+](=O)[O-])c1 (centres undefined),inactive: -0.158%
23,COc1ccc(CN(CCCl)CCCl)cc1Cl,inactive: -0.0571%

row,SMILES,"activity, negative = inhibition"
1,CC(C)c1ccc(NC2CCN(C(=O)OC(C)(C)C)CC2)cc1,inactive: 3.19%
2,COc1cc(OC)c(C(=O)NCC2(N(C)C)CCCCC2)cc1OC,inactive: -11.5%
3,O=C(NCC1(N2CCOCC2)CCCCC1)c1cc2ccccc2o1,inactive: 2.12%
4,Cc1cc(C)cc(N(C(=O)c2ccccc2)C2CCN(C(=O)OC(C)(C)C)CC2)c1,inactive: -2.98%
5,O=C(NCC1(N2CCCCC2)CCCCC1)c1ccc(Cl)nc1,inactive: -2.22%
6,CCOC(=O)N1CCC(Nc2ccc(OC)cc2)CC1,inactive: -0.634%
7,COc1ccc(Cl)cc1C(=O)NCC1(N2CCOCC2)CCCCC1,inactive: 2.26%
8,O=C(OC1CN2CCC1CC2)C1c2ccccc2Oc2ccccc21 (centres undefined),inactive: -12.9%
9,O=C(NCC1(N2CCCCC2)CCCCC1)c1ccc(Cl)s1,inactive: -0.0904%
10,N#CC1(Nc2ccccc2)CCN(Cc2ccccc2)CC1,inactive: 5.7%
11,O=C(NCC1(N2CCCCC2)CCCCC1)c1cccs1,inactive: 6.81%
12,O=C(NCC1(N2CCCCC2)CCCCC1)c1ccc(=O)[nH]c1,inactive: -1.64%
13,CC(C)(C)OC(=O)N1CCC(N(C(=O)c2ccccc2)c2ccc(F)cc2)CC1,inactive: 4.5%
14,COc1ccc(C(=O)NCC2(N3CCCCC3)CCCCC2)c(OC)c1OC,inactive: 11.7%
15,COc1ccc(C(=O)NCC2(N3CCCCC3)CCCCC2)cc1,inactive: 4.88%
16,Cc1cccc(NC2(C#N)CCN(Cc3ccccc3)CC2)c1,inactive: -1.39%
17,CSc1ccccc1C(=O)NCC1(N2CCCCC2)CCCCC1,inactive: 0.528%
18,COc1cc(C(=O)NCC2(N(C)C)CCCCC2)ccc1OC(F)F,inactive: 2.61%
19,CCOC(=O)N1CCC(Nc2cccc(C)c2)CC1,inactive: 8.45%
20,CCOc1ccc(C)cc1CN(CCCl)CCCl,inactive: 0.476%
21,O=C1CCN(Cc2ccccc2)CC1,inactive: 10.6%
22,O=C(NCC1(N2CCOCC2)CCCCC1)c1ccc(Cl)cc1,inactive: -6.14%
23,CCOC(=O)N1CCC(Nc2ccc(F)cc2)CC1,inactive: 7.04%

row,SMILES,"activity, negative = inhibition"
1,COc1ccc(NC2CCN(CCc3ccccc3)CC2)c(OC)c1,inactive: 1.84%
2,O=C(NCC1(N2CCCCC2)CCCCC1)c1ccc(F)cc1,inactive: 7.46%
3,CCCCOc1ccc(C(=O)NCC2(N3CCOCC3)CCCCC2)cc1,inactive: -2.48%
4,COc1ccccc1C(=O)NCC1(N2CCOCC2)CCCCC1,inactive: -6.88%
5,CCN1CCC(Nc2cccc(F)c2)CC1,inactive: -12.4%
6,Cc1ccccc1NC1(C#N)CCN(Cc2ccccc2)CC1,inactive: 0.643%
7,Cn1c(=O)[nH]cc(N(CCCl)CCCl)c1=O,inactive: -3.69%
8,CN(C)c1ccc(C(=O)NCC2(N3CCCCC3)CCCCC2)cc1,inactive: -0.908%
9,CC(C)(C)c1ccc(C(=O)NCC2(N3CCOCC3)CCCCC2)cc1,inactive: -15.4%
10,O=C(NCC1(N2CCCCC2)CCCCC1)c1ccco1,inactive: -4.51%
11,Cc1ccccc1C(=O)NCC1(N(C)C)CCCCC1,inactive: -15.4%
12,COc1cc(OC)cc(C(=O)NCC2(N3CCCCC3)CCCCC2)c1,inactive: -2.24%
13,CC(=O)N(c1ccccc1)C1CCNCC1,inactive: -2.15%
14,CN(C)C1(CNC(=O)c2ccc(C(C)(C)C)cc2)CCCCC1,inactive: -0.503%
15,Cc1ccc(NC2(C#N)CCN(Cc3ccccc3)CC2)cc1,inactive: -2.93%
16,Fc1ccccc1NC1CCN(Cc2ccccc2)CC1,inactive: -2.48%
17,Cc1ccc(C(=O)NCC2(N3CCCCC3)CCCCC2)o1,inactive: -3.13%
18,CCC(CO)(C(=O)OC1CN2CCC1CC2)c1ccccc1 (centres undefined),inactive: 6.16%
19,COc1cccc(C(=O)N(c2cc(C)cc(C)c2)C2CCN(C(=O)OC(C)(C)C)CC2)c1,inactive: -6.29%
20,COc1cc(OC)cc(C(=O)NCC2(N3CCOCC3)CCCCC2)c1,inactive: 3.28%
21,COc1cc(C(=O)NCC2(N3CCOCC3)CCCCC2)cc(OC)c1OC,inactive: -5.74%
22,CN1CCC(Nc2ccc(Cl)cc2)CC1,inactive: -5.05%
23,CN1CCC(Nc2ccc(F)c(Cl)c2)CC1,inactive: 2.69%

row,SMILES,"activity, negative = inhibition"
1,CCOc1ncccc1C(=O)NCC1(N2CCOCC2)CCCCC1,inactive: -12.2%
2,CCCOc1ccc(C(=O)NCC2(N(C)C)CCCCC2)cc1,inactive: -6.16%
3,O=C(O)C1(Nc2ccccc2)CCN(Cc2ccccc2)CC1,inactive: -5.46%
4,CC(C)(C)OC(=O)N1CCC(Nc2ccccc2)CC1,inactive: -4.22%
5,N/C(=N\O)c1c(N)no[n+]1[O-],inactive: -11.4%
6,CCOC(=O)N1CCC(Nc2ccc(C)cc2)CC1,inactive: -1.76%
7,O=C(OC1CN2CCC1CC2)C1c2ccccc2C=Cc2ccccc21 (centres undefined),inactive: -6.53%
8,CCc1cc(C(=O)NCC2(N3CCCCC3)CCCCC2)sc1C,inactive: -4.45%
9,O=C(NCC1(N2CCOCC2)CCCCC1)c1cc(Br)ccc1Cl,inactive: 2.12%
10,COc1cc(C(=O)NCC2(N3CCOCC3)CCCCC2)cc(OC)c1C,inactive: 3.63%
11,COc1ccc(C(=O)NCC2(N3CCOCC3)CCCCC2)cc1OC,inactive: -1.27%
12,Cc1cc(N(CCCl)CCCl)ccc1C=O,inactive: -0.956%
13,O=C(NCC1(N2CCOCC2)CCCCC1)c1ccccc1,inactive: -8.7%
14,c1ccc(CN2CCC(Nc3ccccc3)CC2)cc1,inactive: -4.59%
15,CN(C)C1(CNC(=O)c2cccc(C#N)c2)CCCCC1,inactive: -0.594%
16,CC(C)(C)OC(=O)N1CCC(N(C(=O)c2ccccc2)c2ccc(Cl)cc2)CC1,inactive: -3.94%
17,O=C(NCC1(N2CCOCC2)CCCCC1)c1ccc([N+](=O)[O-])cc1,inactive: -1.74%
18,O=C(NCC1(N2CCOCC2)CCCCC1)c1ccccc1[N+](=O)[O-],inactive: -5.94%
19,N#Cc1ccc(C(=O)NCC2(N3CCCCC3)CCCCC2)cc1,inactive: 9.71%
20,CCOC(=O)C(CC)C1=NC(C)(C)Cc2ccccc21.O=[N+]([O-])c1cc([N+](=O)[O-])c(O)c([N+](=O)[O-])c1 (centres undefined),inactive: 2.07%
